Publication PMC4197335, “Cancer-Selective Targeting of the NF-κB Survival Pathway with GADD45β/MKK7 Inhibitors” (Cancer Cell, 2014)

Molecular target: T1, GADD45β/MKK7 complex (Homo sapiens, UniProt O14733)
T1 construct: Full-length human (h)MKK7 was expressed as a protein fused to an N-terminal GST tag (GST-MKK7); made in house
T1 sequence (O14733 1-419): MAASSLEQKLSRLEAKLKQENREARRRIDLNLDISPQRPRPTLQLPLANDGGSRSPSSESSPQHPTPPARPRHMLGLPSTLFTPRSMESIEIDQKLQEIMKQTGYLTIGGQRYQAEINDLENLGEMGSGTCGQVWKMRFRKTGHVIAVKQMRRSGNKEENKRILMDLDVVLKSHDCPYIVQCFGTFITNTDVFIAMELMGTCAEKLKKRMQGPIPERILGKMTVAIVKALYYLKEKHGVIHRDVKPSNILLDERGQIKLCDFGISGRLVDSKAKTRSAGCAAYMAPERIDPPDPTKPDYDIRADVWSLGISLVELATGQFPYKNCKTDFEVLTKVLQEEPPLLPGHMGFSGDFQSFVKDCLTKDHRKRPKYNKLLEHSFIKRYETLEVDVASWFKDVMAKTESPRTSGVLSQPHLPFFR
Assay: ELISA GADD45β/MKK7 competition assay
Assay type: binding
Conditions: Table S4; read-out: IC50s (ELISA)
Excerpt: Additional details are provided in Supplemental Experimental Procedures.
(1:1,000) and the HRP chromogenic substrate, o -phenylenediamine (OPD). GST -coated wells wer e […]
The ELISA competition screen used f or the isolation of antagonists of the GADD45β /MKK7 […]
The library deconvolution strategy used for this screen was described previously […]
General information about this type of screens can be found elsewhere […]
Values were expressed as the percentage of inhibition of His6-hGADD45β binding to GST-hMKK7 relative to the binding measured in the absence of […]
Dose-response, ELISA GADD45β /MKK7 competition assays were carried out under similar […]
As part of the SAR analysis and lead optimization process, where appropriate, competitors were tested at a concentration up to 100 nM. In order to determine their stability in biolog ical f luids , peptides were incubated at the concentration of 10 µM in […]
calculated using at least 7 concentrations of peptide and def ined as the mean concentration of peptide […]
the absence of competitor. W here indicated, values were expressed as the percentage of inhibition of His 6 -hGADD45β binding to GST-hMKK7 relative to the binding measured in the absence of competitor.
GST was used as a control in all the experiments. […]
tetrapeptide used as negative control in some of the ELISA and cellular assays was as f ollows: z -DNC, z-T yr -Asp-His-Gln-NH 2 . […]

Structure (SMILES)	IC50
CC(=O)N[C@H](Cc1ccc(O)cc1)C(=O)N[C@H](Cc1c[nH]cn1)C(=O)N[C@H](Cc1ccccc1)C(N)=O [Ac-YHF-NH2]	0.7 nM
CC(=O)N[C@H](Cc1ccc(O)cc1)C(=O)N1CCC[C@@H]1C(=O)N[C@H](Cc1ccccc1)C(N)=O [Ac-YPF-NH2]	0.65 nM
CC(=O)N[C@H](Cc1ccc(O)cc1)C(=O)N[C@H](CCCNC(=N)N)C(=O)N[C@H](Cc1ccc(O)cc1)C(N)=O [Ac-YRY-NH2]	0.76 nM
